ChEMBL document CHEMBL3232862, “Optimization of chemical functionalities of indole-2-carboxamides to improve allosteric parameters for the cannabinoid receptor 1 (CB1)” (J Med Chem, 2014)

Amino acid sequences for entries named in this document (tags omitted).
UniProt P21554, whole entry: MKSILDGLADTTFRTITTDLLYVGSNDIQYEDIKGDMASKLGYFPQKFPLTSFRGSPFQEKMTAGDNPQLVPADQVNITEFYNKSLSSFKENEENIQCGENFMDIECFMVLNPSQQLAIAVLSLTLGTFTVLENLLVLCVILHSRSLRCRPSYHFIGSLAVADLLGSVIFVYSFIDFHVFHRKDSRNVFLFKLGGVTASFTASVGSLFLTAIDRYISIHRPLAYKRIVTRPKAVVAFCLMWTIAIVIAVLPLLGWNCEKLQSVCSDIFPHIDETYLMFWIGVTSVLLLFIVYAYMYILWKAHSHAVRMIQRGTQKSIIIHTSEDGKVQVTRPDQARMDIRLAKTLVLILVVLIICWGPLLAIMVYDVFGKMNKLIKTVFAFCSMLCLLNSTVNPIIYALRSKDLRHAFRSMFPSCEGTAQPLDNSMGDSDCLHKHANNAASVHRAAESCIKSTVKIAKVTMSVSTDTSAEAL

How the values were obtained:
[1] = molecular target: Cannabinoid receptor 1 (Homo sapiens) (UniProt P21554); experiment: Positive allosteric modulation of cannabinoid CB1 receptor (unknown origin) expressed in HEK293 cells assessed as induction of ERK1/2 phosphorylation by Western blot analysis in presence of siRNA targeting beta-arrestin 1; assay type: cell-based
Method in brief: (§1)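 HEK293 cells were lipofectamine-transfected with CB1, with or without β-arrestin 1 siRNA (2.6 μg) or a nonsilencing control. After 24 h they were serum-starved for 18 h, with optional PTX at 5 ng/mL for 16 h at 37 °C. Cells were exposed 5 min to modulator (0–10 μM) plus 0.2 μM CP55,940 and lysed. 12 μg protein was run on 10% SDS-PAGE and immunoblotted for phospho-p44/42 and total p44/42.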

[2] = molecular target: Cannabinoid receptor 1 (Homo sapiens) (UniProt P21554); experiment: Positive allosteric modulation of cannabinoid CB1 receptor (unknown origin) expressed in HEK293 cells assessed as induction of ERK1/2 phosphorylation by Western blot analysis in absence of siRNA targeting beta-arrestin 1; assay type: cell-based; method in brief: as §1

CCCCCc1c(C(=O)NCCc2ccc(N3CCCCC3)cc2)[nH]c2ccc(Cl)cc12
inhibition [1]: inactive | inhibition [2]: Dose-dependent effect

Calls of active or inactive are those of the source. The rule behind the calls is not given here.
